{
  "sequences": {"note": "The chains behind the UniProt entries cited, without tags or fusion partners. Residues count along the entry.", "UniProt P32241, 31-457": "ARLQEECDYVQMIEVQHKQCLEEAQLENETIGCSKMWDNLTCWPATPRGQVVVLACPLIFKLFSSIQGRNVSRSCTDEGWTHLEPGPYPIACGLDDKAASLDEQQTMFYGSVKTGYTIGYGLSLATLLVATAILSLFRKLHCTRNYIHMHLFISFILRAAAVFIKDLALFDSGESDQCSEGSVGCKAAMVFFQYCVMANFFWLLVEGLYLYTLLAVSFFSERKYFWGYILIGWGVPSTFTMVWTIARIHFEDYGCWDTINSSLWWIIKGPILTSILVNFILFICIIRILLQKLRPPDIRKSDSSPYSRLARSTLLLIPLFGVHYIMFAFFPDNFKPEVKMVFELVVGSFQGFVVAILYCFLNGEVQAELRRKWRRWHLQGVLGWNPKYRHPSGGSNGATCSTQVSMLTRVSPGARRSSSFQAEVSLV"},
  "source": "paper PMC3554773",
  "about": "“Screening of a Specific Peptide Binding to VPAC1 Receptor from a Phage Display Peptide Library” (PLoS ONE, 2013)",
  "key": {"[1]": {"target": "T1, VPAC1 receptor (CHO-K1/VPAC1 cells) (Homo sapiens, UniProt P32241)", "T1 construct": "expressed in transfected cells", "test": "flow cytometry, inhibition of FITC-VP2 binding to CHO-K1/VPAC1 cells", "settings": "competitor (VIP 50 µM) + FITC-VP2 10 µM, 1 h, room temperature"}, "[2]": {"target": "T1, VPAC1 receptor (CHO-K1/VPAC1 cells)", "test": "competitive inhibition ELISA: binding of phage clone VP2 to CHO-K1/VPAC1 cells, inhibited by VIP", "settings": "VIP 0-100 µg/ml; 1×10^10 pfu phage VP2, 37°C, 2 h"}},
  "data": [
    {"smiles": "CC[C@H](C)[C@H](NC(=O)[C@H](CO)NC(=O)[C@H](CC(N)=O)NC(=O)[C@H](CC(C)C)NC(=O)[C@H](Cc1ccc(O)cc1)NC(=O)[C@H](CCCCN)NC(=O)[C@H](CCCCN)NC(=O)[C@@H](NC(=O)[C@H](C)NC(=O)[C@H](CCSC)NC(=O)[C@H](CCC(N)=O)NC(=O)[C@H](CCCCN)NC(=O)[C@H](CCCNC(=N)N)NC(=O)[C@H](CC(C)C)NC(=O)[C@H](CCCNC(=N)N)NC(=O)[C@@H](NC(=O)[C@H](Cc1ccc(O)cc1)NC(=O)[C@H](CC(N)=O)NC(=O)[C@H](CC(=O)O)NC(=O)[C@@H](NC(=O)[C@H](Cc1ccccc1)NC(=O)[C@@H](NC(=O)[C@H](C)NC(=O)[C@H](CC(=O)O)NC(=O)[C@H](CO)NC(=O)[C@@H](N)Cc1c[nH]cn1)C(C)C)[C@@H](C)O)[C@@H](C)O)C(C)C)C(=O)N[C@@H](CC(C)C)C(=O)N[C@@H](CC(N)=O)C(N)=O", "note": "[VIP, vasoactive intestinal peptide]", "values": [
      {"measurement": "effect on FITC-VP2 binding to CHO-K1/VPAC1 cells", "setting": "[1]", "result": "significantly inhibited"},
      {"measurement": "IC50, inhibition of phage clone VP2 binding", "setting": "[2]", "result": "approximately 9.1 µg/ml"},
      {"measurement": "concentration above which significant inhibition of phage clone VP2 binding occurred", "setting": "[2]", "result": "above 0.001 µg/ml"}
    ]}
  ]
}
